Measurements taken from patent EP4834897A1, “COMPOUNDS WITH TWO AZAHETEROCYCLES SUBSTITUTED ISOINDOLINONE SKELETON AND USES THEREOF” (dated 2026).

The chains behind the UniProt entries cited, without tags or fusion partners.
UniProt Q13422, whole entry: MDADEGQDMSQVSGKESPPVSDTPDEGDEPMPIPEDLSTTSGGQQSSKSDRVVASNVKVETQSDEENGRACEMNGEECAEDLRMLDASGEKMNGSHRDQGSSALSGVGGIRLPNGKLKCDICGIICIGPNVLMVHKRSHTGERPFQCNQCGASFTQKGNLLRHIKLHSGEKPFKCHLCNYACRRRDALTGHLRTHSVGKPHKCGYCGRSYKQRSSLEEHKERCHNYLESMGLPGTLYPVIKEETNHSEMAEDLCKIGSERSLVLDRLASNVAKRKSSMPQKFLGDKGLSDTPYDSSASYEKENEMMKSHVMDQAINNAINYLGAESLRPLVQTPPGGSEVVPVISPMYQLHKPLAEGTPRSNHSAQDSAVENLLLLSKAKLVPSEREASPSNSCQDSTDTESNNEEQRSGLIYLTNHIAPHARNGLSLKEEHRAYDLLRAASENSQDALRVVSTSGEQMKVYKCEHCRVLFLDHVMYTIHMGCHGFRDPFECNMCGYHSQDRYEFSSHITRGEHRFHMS
UniProt Q96SW2, whole entry: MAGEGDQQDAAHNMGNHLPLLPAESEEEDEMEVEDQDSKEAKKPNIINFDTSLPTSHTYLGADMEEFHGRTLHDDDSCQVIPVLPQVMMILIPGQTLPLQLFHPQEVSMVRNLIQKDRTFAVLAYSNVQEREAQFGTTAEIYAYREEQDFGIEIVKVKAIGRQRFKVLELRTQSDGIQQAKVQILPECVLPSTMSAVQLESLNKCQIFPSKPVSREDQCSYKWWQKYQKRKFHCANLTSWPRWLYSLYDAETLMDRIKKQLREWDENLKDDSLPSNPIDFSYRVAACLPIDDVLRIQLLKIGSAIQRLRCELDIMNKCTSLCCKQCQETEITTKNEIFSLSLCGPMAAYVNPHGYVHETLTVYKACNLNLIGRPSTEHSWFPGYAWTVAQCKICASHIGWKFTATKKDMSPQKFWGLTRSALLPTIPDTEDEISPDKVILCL
UniProt P48729, whole entry: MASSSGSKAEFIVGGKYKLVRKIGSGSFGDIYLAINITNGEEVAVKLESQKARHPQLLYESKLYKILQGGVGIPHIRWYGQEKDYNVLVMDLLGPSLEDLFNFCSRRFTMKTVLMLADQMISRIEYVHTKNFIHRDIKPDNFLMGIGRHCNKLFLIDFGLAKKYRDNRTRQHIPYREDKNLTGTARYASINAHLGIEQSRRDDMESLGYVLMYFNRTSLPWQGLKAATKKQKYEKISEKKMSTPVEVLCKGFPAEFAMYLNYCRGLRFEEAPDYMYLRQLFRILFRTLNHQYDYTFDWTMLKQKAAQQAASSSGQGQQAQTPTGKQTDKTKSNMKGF
UniProt Q9UKS7, whole entry: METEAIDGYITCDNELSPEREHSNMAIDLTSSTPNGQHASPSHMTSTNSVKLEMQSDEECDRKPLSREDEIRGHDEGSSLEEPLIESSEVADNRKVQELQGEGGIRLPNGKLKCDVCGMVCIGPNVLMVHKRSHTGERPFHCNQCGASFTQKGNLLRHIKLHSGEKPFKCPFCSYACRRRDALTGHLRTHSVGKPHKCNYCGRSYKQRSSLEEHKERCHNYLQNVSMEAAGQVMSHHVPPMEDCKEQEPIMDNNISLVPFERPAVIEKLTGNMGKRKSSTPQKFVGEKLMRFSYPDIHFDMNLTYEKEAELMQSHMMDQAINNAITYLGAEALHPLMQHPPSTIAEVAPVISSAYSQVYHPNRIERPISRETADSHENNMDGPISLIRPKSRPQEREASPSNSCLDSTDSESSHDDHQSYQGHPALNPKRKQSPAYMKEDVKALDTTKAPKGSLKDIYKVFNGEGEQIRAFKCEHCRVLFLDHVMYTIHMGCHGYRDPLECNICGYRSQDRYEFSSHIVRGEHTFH
UniProt Q9UKT9, whole entry: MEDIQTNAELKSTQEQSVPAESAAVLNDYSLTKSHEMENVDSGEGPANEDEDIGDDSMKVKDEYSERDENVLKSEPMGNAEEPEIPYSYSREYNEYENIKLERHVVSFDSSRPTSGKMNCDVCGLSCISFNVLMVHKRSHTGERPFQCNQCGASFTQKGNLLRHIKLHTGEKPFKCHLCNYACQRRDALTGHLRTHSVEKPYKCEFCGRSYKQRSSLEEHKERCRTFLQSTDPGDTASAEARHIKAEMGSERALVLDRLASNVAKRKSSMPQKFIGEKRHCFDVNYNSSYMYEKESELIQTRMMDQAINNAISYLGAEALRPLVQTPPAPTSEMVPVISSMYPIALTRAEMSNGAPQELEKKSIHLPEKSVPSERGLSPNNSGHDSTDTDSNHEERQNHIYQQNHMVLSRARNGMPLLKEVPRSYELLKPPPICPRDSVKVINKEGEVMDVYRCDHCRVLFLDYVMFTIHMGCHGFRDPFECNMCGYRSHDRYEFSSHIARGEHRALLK
UniProt P15170, whole entry: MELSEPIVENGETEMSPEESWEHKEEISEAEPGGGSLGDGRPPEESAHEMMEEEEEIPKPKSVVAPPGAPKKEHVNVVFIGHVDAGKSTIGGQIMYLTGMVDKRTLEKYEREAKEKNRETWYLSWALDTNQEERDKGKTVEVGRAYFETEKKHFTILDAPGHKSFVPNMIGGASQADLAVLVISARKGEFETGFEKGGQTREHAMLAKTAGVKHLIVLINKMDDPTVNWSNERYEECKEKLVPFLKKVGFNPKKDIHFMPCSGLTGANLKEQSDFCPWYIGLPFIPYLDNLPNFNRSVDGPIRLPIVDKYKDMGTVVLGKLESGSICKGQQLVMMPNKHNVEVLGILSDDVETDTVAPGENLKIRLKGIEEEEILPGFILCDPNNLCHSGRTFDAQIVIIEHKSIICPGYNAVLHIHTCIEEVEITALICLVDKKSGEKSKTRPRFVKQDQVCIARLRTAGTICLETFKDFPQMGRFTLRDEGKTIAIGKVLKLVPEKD
UniProt P30291, whole entry: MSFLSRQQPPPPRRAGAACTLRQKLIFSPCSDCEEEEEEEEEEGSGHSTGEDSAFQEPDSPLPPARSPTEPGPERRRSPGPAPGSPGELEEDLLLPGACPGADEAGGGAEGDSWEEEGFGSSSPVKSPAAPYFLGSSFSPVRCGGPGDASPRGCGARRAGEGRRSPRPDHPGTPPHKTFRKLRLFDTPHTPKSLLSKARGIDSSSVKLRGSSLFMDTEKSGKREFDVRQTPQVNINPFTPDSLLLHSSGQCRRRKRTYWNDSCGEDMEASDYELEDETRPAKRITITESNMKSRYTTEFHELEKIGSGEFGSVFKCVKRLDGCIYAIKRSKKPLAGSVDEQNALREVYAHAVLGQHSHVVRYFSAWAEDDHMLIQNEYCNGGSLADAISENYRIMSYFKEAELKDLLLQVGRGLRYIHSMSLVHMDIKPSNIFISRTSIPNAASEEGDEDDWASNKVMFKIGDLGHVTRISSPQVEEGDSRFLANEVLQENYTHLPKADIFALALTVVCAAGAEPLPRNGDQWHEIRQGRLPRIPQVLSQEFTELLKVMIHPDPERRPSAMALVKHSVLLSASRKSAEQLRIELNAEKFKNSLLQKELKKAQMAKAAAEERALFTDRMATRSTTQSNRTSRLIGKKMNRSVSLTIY
UniProt Q16531, whole entry partner: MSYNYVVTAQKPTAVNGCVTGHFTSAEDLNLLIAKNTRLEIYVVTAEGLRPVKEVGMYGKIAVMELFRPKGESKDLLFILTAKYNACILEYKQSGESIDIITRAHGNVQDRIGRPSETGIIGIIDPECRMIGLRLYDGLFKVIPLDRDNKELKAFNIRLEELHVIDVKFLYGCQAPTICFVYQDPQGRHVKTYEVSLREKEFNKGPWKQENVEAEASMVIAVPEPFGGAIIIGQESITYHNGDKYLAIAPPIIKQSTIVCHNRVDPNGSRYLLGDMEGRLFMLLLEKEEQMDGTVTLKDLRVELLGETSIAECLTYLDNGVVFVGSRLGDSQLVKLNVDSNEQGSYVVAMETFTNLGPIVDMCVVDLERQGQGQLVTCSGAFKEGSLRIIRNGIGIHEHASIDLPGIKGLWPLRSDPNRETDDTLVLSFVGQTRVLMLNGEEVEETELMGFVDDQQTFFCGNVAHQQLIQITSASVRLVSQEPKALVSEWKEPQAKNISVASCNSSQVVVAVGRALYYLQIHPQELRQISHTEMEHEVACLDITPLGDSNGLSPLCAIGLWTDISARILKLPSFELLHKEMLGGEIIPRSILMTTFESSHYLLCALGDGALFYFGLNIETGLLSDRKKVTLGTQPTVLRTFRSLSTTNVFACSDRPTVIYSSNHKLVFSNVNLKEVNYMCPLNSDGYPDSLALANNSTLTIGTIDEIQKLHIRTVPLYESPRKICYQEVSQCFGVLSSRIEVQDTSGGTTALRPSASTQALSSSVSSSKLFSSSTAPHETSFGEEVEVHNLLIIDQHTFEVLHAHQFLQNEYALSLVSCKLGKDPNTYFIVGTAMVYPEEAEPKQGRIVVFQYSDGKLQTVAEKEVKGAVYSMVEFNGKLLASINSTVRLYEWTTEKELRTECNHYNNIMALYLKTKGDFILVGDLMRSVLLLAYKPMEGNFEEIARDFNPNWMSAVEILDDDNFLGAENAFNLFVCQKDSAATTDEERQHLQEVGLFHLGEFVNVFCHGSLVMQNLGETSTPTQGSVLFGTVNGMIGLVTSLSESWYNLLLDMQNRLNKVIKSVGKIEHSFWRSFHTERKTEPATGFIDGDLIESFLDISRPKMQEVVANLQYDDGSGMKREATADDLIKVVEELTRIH

system: Human diffuse large B-cell lymphoma cell (TMD8); assay: Tumor cell proliferation inhibition (cell viability assay); settings: TMD8 cells; 10 nM; 96 hours

Structure (SMILES) | Inhibition Rate at 10 nM (%)
O=C1CCC(N2Cc3cc(CN4CCC(N5CC=C(c6cccc(Cl)c6Cl)CC5)C(F)(F)C4)c(F)cc3C2=O)C(=O)N1 (centres unmarked) | 1f3 (10% ≤ 1f3 < 20%)

same assay, conditions: TMD8 cells; 500 nM; 96 hours

Structure (SMILES) | Inhibition Rate at 500 nM (%)
O=C1CCC(N2Cc3cc(CN4CCC(N5CC=C(c6cccc(Cl)c6Cl)CC5)C(F)(F)C4)c(F)cc3C2=O)C(=O)N1 (centres unmarked) | 1f6 (40% ≤ 1f6 < 50%)

system: Human multiple myeloma cell (MM.1S); assay: as above; settings: MM.1S cells; 10 nM; 96 hours

Structure (SMILES) | Inhibition Rate at 10 nM (%)
O=C1CCC(N2Cc3cc(CN4CCC(N5CC=C(c6cccc(Cl)c6Cl)CC5)C(F)(F)C4)c(F)cc3C2=O)C(=O)N1 (centres unmarked) | 1b10 (80% ≤ 1b10 ≤ 100%)

same assay, conditions: MM.1S cells; 500 nM; 96 hours

Structure (SMILES) | Inhibition Rate at 500 nM (%)
O=C1CCC(N2Cc3cc(CN4CCC(N5CC=C(c6cccc(Cl)c6Cl)CC5)C(F)(F)C4)c(F)cc3C2=O)C(=O)N1 (centres unmarked) | 1b10 (80% ≤ 1b10 ≤ 100%)

system: Human mantle cell lymphoma cell line (JEKO-1); assay: as above; settings: JEKO-1 cells; 10 nM; 96 hours

Structure (SMILES) | Inhibition Rate at 10 nM (%)
O=C1CCC(N2Cc3cc(CN4CCC(N5CC=C(c6cccc(Cl)c6Cl)CC5)C(F)(F)C4)c(F)cc3C2=O)C(=O)N1 (centres unmarked) | 1g8 (60% ≤ 1g8 < 70%)

same assay, conditions: JEKO-1 cells; 500 nM; 96 hours

Structure (SMILES) | Inhibition Rate at 500 nM (%)
O=C1CCC(N2Cc3cc(CN4CCC(N5CC=C(c6cccc(Cl)c6Cl)CC5)C(F)(F)C4)c(F)cc3C2=O)C(=O)N1 (centres unmarked) | 1g9 (70% ≤ 1g9 < 80%)

system: Human myeloid monocytic leukemia cell (MV-4-11); assay: as above; settings: MV-4-11 cells; 10 nM; 96 hours

Structure (SMILES) | Inhibition Rate at 10 nM (%)
O=C1CCC(N2Cc3cccc(CN4CCC(N5CCN(C(c6ccccc6)c6ccccn6)CC5)C(F)(F)C4)c3C2=O)C(=O)N1 (centres unmarked) | 1a7 (50% ≤ 1a7 < 60%)
O=C1CCC(N2Cc3cc(CN4CCC(N5CC=C(c6cccc(Cl)c6Cl)CC5)C(F)(F)C4)c(F)cc3C2=O)C(=O)N1 (centres unmarked) | 1a11 (100% ≤ 1a11 ≤ 105%)

same assay, conditions: MV-4-11 cells; 500 nM; 96 hours

Structure (SMILES) | Inhibition Rate at 500 nM (%)
O=C1CCC(N2Cc3cccc(CN4CCC(N5CCN(C(c6ccccc6)c6ccccn6)CC5)C(F)(F)C4)c3C2=O)C(=O)N1 (centres unmarked) | 1a9 (70% ≤ 1a9 < 80%)
O=C1CCC(N2Cc3cc(CN4CCC(N5CC=C(c6cccc(Cl)c6Cl)CC5)C(F)(F)C4)c(F)cc3C2=O)C(=O)N1 (centres unmarked) | 1a10 (80% ≤ 1a10 < 100%)

system: Human colon cancer cell (SW620); assay: as above; settings: SW620 cells; 10 nM; 96 hours

Structure (SMILES) | Inhibition Rate at 10 nM (%)
O=C1CCC(N2Cc3cc(CN4CCC(N5CC=C(c6cccc(Cl)c6Cl)CC5)C(F)(F)C4)c(F)cc3C2=O)C(=O)N1 (centres unmarked) | 1d10 (80% ≤ 1d10 ≤ 100%)

same assay, conditions: SW620 cells; 500 nM; 96 hours

Structure (SMILES) | Inhibition Rate at 500 nM (%)
O=C1CCC(N2Cc3cc(CN4CCC(N5CC=C(c6cccc(Cl)c6Cl)CC5)C(F)(F)C4)c(F)cc3C2=O)C(=O)N1 (centres unmarked) | 1d10 (80% ≤ 1d10 ≤ 100%)

system: Human breast cancer cell (MCF-7); assay: as above; settings: MCF-7 cells; 10 nM; 96 hours

Structure (SMILES) | Inhibition Rate at 10 nM (%)
O=C1CCC(N2Cc3cc(CN4CCC(N5CC=C(c6cccc(Cl)c6Cl)CC5)C(F)(F)C4)c(F)cc3C2=O)C(=O)N1 (centres unmarked) | 1e8 (50% ≤ 1e8 < 60%)

same assay, conditions: MCF-7 cells; 500 nM; 96 hours

Structure (SMILES) | Inhibition Rate at 500 nM (%)
O=C1CCC(N2Cc3cc(CN4CCC(N5CC=C(c6cccc(Cl)c6Cl)CC5)C(F)(F)C4)c(F)cc3C2=O)C(=O)N1 (centres unmarked) | 1e10 (70% ≤ 1e10 < 80%)

system: Human acute T lymphocytic leukemia cell (Molt4); assay: as above; settings: Molt4 cells; 10 nM; 96 hours

Structure (SMILES) | Inhibition Rate at 10 nM (%)
O=C1CCC(N2Cc3cc(CN4CCC(N5CC=C(c6cccc(Cl)c6Cl)CC5)C(F)(F)C4)c(F)cc3C2=O)C(=O)N1 (centres unmarked) | 1c12 (100% < 1c12 ≤ 105%)

same assay, conditions: Molt4 cells; 500 nM; 96 hours

Structure (SMILES) | Inhibition Rate at 500 nM (%)
O=C1CCC(N2Cc3cc(CN4CCC(N5CC=C(c6cccc(Cl)c6Cl)CC5)C(F)(F)C4)c(F)cc3C2=O)C(=O)N1 (centres unmarked) | 1c11 (80% ≤ 1c11 ≤ 100%)

target: IKZF1 (Homo sapiens, UniProt Q13422+Q96SW2); assay: Western blot assay of substrate protein degradation in hPBMCs; settings: 24 hours treatment, compounds at 50 nM and 500 nM (concentration behind the class not stated)

Structure (SMILES) | substrate protein remaining % (IKZF 1)
O=C1CCC(N2Cc3cccc(CN4CCC(N5CCN(C(c6ccccc6)c6ccccn6)CC5)C(F)(F)C4)c3C2=O)C(=O)N1 (centres unmarked) | B (80%< substrate protein remaining %≤ 100%)
O=C1CCC(N2Cc3cc(CN4CCC(N5CC=C(c6cccc(Cl)c6Cl)CC5)C(F)(F)C4)c(F)cc3C2=O)C(=O)N1 (centres unmarked) | A (0% ≤ substrate protein remaining % ≤ 80%)

target: CK1α (Homo sapiens, UniProt P48729+Q96SW2); assay: as above; settings: 24 hours treatment, compounds at 50 nM and 500 nM (concentration behind the class not stated)

Structure (SMILES) | substrate protein remaining % (CK1a)
O=C1CCC(N2Cc3cccc(CN4CCC(N5CCN(C(c6ccccc6)c6ccccn6)CC5)C(F)(F)C4)c3C2=O)C(=O)N1 (centres unmarked) | A (0% ≤ substrate protein remaining % ≤ 80%)
O=C1CCC(N2Cc3cc(CN4CCC(N5CC=C(c6cccc(Cl)c6Cl)CC5)C(F)(F)C4)c(F)cc3C2=O)C(=O)N1 (centres unmarked) | A (0% ≤ substrate protein remaining % ≤ 80%)

target: IKZF2 (Homo sapiens, UniProt Q96SW2+Q9UKS7); assay: as above; settings: 24 hours treatment, compounds at 50 nM and 500 nM (concentration behind the class not stated)

Structure (SMILES) | substrate protein remaining % (IKZF2)
O=C1CCC(N2Cc3cccc(CN4CCC(N5CCN(C(c6ccccc6)c6ccccn6)CC5)C(F)(F)C4)c3C2=O)C(=O)N1 (centres unmarked) | B (80%< substrate protein remaining %≤ 100%)
O=C1CCC(N2Cc3cc(CN4CCC(N5CC=C(c6cccc(Cl)c6Cl)CC5)C(F)(F)C4)c(F)cc3C2=O)C(=O)N1 (centres unmarked) | A (0% ≤ substrate protein remaining % ≤ 80%)

target: IKZF3 (Homo sapiens, UniProt Q96SW2+Q9UKT9); assay: as above; settings: 24 hours treatment, compounds at 50 nM and 500 nM (concentration behind the class not stated)

Structure (SMILES) | substrate protein remaining % (IKZF3)
O=C1CCC(N2Cc3cccc(CN4CCC(N5CCN(C(c6ccccc6)c6ccccn6)CC5)C(F)(F)C4)c3C2=O)C(=O)N1 (centres unmarked) | B (80%< substrate protein remaining %≤ 100%)
O=C1CCC(N2Cc3cc(CN4CCC(N5CC=C(c6cccc(Cl)c6Cl)CC5)C(F)(F)C4)c(F)cc3C2=O)C(=O)N1 (centres unmarked) | A (0% ≤ substrate protein remaining % ≤ 80%)

target: GSPT1 (Homo sapiens, UniProt P15170+Q96SW2); assay: as above; settings: 24 hours treatment, compounds at 50 nM and 500 nM (concentration behind the class not stated)

Structure (SMILES) | substrate protein remaining % (GSPT1)
O=C1CCC(N2Cc3cccc(CN4CCC(N5CCN(C(c6ccccc6)c6ccccn6)CC5)C(F)(F)C4)c3C2=O)C(=O)N1 (centres unmarked) | A (0% ≤ substrate protein remaining % ≤ 80%)
O=C1CCC(N2Cc3cc(CN4CCC(N5CC=C(c6cccc(Cl)c6Cl)CC5)C(F)(F)C4)c(F)cc3C2=O)C(=O)N1 (centres unmarked) | A (0% ≤ substrate protein remaining % ≤ 80%)

target: WEE1 (Homo sapiens, UniProt P30291+Q96SW2); assay: as above; settings: 24 hours treatment, compounds at 50 nM and 500 nM (concentration behind the class not stated)

Structure (SMILES) | substrate protein remaining % (WEE1)
O=C1CCC(N2Cc3cccc(CN4CCC(N5CCN(C(c6ccccc6)c6ccccn6)CC5)C(F)(F)C4)c3C2=O)C(=O)N1 (centres unmarked) | B (80%< substrate protein remaining %≤ 100%)
O=C1CCC(N2Cc3cc(CN4CCC(N5CC=C(c6cccc(Cl)c6Cl)CC5)C(F)(F)C4)c(F)cc3C2=O)C(=O)N1 (centres unmarked) | A (0% ≤ substrate protein remaining % ≤ 80%)

system: IL-5; assay: Inflammatory cytokine release from PBMCs induced by PMA + Ionomycin (flow cytometry CBA); settings: 0.1 µM, 24 h

Structure (SMILES) | Inhibition Rate (%) IL-5
O=C1CCC(N2Cc3cccc(CN4CCC(N5CCN(C(c6ccccc6)c6ccccn6)CC5)C(F)(F)C4)c3C2=O)C(=O)N1 (centres unmarked) | IV9 (40% < IV9 ≤ 50%)

same assay, conditions: 1 µM, 24 h

Structure (SMILES) | Inhibition Rate (%) IL-5
O=C1CCC(N2Cc3cccc(CN4CCC(N5CCN(C(c6ccccc6)c6ccccn6)CC5)C(F)(F)C4)c3C2=O)C(=O)N1 (centres unmarked) | IV8 (30% < IV8 ≤ 40%)

system: GM-CSF; assay: as above; settings: 0.1 µM, 24 h

Structure (SMILES) | Inhibition Rate (%) GM-CSF
O=C1CCC(N2Cc3cccc(CN4CCC(N5CCN(C(c6ccccc6)c6ccccn6)CC5)C(F)(F)C4)c3C2=O)C(=O)N1 (centres unmarked) | IV10 (50% < IV 10 ≤ 60%)

same assay, conditions: 1 µM, 24 h

Structure (SMILES) | Inhibition Rate (%) GM-CSF
O=C1CCC(N2Cc3cccc(CN4CCC(N5CCN(C(c6ccccc6)c6ccccn6)CC5)C(F)(F)C4)c3C2=O)C(=O)N1 (centres unmarked) | IV9 (40% < IV9 ≤ 50%)

target: CRBN (Homo sapiens, UniProt Q96SW2); assay: CRBN binding affinity by HTRF (CEREBLON BINDING kit); settings: CRBN binding, HTRF, compound at 0.5 µM

Structure (SMILES) | Inhibition Rate at 0.5 µM (%)
O=C1CCC(N2Cc3cccc(CN4CCC(N5CCN(C(c6ccccc6)c6ccccn6)CC5)C(F)(F)C4)c3C2=O)C(=O)N1 (centres unmarked) | a3 (30% < a3 ≤ 40%)
O=C1CCC(N2Cc3cc(CN4CCC(N5CC=C(c6cccc(Cl)c6Cl)CC5)C(F)(F)C4)c(F)cc3C2=O)C(=O)N1 (centres unmarked) | a3 (30% < a3 ≤ 40%)

same assay, conditions: CRBN binding, HTRF, compound at 2 µM

Structure (SMILES) | Inhibition Rate at 2 µM (%)
O=C1CCC(N2Cc3cccc(CN4CCC(N5CCN(C(c6ccccc6)c6ccccn6)CC5)C(F)(F)C4)c3C2=O)C(=O)N1 (centres unmarked) | a6 (60% < a6 ≤ 70%)
O=C1CCC(N2Cc3cc(CN4CCC(N5CC=C(c6cccc(Cl)c6Cl)CC5)C(F)(F)C4)c(F)cc3C2=O)C(=O)N1 (centres unmarked) | a5 (53% < a5 ≤ 60%)

system: IL-2; assay: Inflammatory cytokine release from PBMCs induced by PHA (flow cytometry CBA); settings: 0.1 µM; PBMCs, PHA 1 µg/mL, 24 h

Structure (SMILES) | Inhibition Rate (%) IL-2
O=C1CCC(N2Cc3cccc(CN4CCC(N5CCN(C(c6ccccc6)c6ccccn6)CC5)C(F)(F)C4)c3C2=O)C(=O)N1 (centres unmarked) | IV10 (50% < IV 10 ≤ 60%)

same assay, conditions: 1 µM; PBMCs, PHA 1 µg/mL, 24 h

Structure (SMILES) | Inhibition Rate (%) IL-2
O=C1CCC(N2Cc3cccc(CN4CCC(N5CCN(C(c6ccccc6)c6ccccn6)CC5)C(F)(F)C4)c3C2=O)C(=O)N1 (centres unmarked) | IV7 (20% < IV7 ≤ 30%)
